Measured values from patent EP2974743B1, “CYCLODEXTRIN CARRIER-BASED ARTEANNUIN COMPOUND CONJUGATE AND PREPARING METHOD THEREOF” (KPC Pharmaceuticals, Inc., priority 2012, dated 2014).

Experiment: solubility in water
Type: physicochemical
Text: Also, the cyclodextrin carrier-based arteannuinoid compound is absorbed in merely a small amount when passing through stomach and small intestine of a human body, which is mainly absorbed by the large intestine, with a property of releasing in straight cecum. Therefore, the cyclodextrin carrier-based arteannuinoid compound according to the present disclosure can effectively enter the body of a patient, improving the bioavailability.

mono-6-artesunate-β-cyclodextrin conjugate [Example 1]
solubility: 65 mg/mL
